Measurements taken from US20190343860A1 (Saint Louis University, priority 2016, published 2019).

By UniProt entry, the sequences of proteins in these tests, tags left out.
UniProt Q60613, whole entry: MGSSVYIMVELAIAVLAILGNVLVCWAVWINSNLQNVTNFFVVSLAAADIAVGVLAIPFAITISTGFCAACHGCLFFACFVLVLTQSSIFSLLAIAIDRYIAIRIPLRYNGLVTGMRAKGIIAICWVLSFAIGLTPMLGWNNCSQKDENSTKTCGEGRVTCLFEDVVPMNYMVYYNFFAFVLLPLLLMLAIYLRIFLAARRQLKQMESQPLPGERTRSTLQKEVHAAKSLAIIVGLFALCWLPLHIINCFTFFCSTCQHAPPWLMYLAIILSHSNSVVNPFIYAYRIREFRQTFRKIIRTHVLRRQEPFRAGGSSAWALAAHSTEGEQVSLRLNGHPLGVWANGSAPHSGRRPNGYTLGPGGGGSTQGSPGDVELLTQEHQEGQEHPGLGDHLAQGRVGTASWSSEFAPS

Key:
mA2AAR = mA2AAR (Mus musculus, UniProt Q60613); assay: Radioligand binding, membranes of HEK293 cells stably expressing mA2AAR; conditions: species m; inhibition of binding at 10 μM
hA2AAR = hA2AAR (Homo sapiens, UniProt P29274); assay: Radioligand binding, membranes of HEK293 cells stably expressing hA2AAR; conditions: species h; inhibition of binding at 10 μM

Compound: CNC(=O)[C@@]12C[C@@H]1[C@@H](n1cnc3c(NCCc4ccc(S(=O)(=O)O)cc4)nc(C#Cc4ccccc4)nc31)[C@H](O)[C@@H]2O
- % inhibition A2A (mA2AAR): (0%)
- % inhibition A2A (hA2AAR): (1% ± 1%)
